Ab-14 light chain CDR variants: yeast mating affinities

Values reported by Engelhart et al. 2022, doi:10.1038/s41597-022-01779-4 (FLAb copy).

Binding partner: SARS-CoV-2 spike HR2 peptide, sequence PDVDLGDISGINAS.

Parent: Ab-14, a human scFv built as VH, a (GGGGS)3 linker, VL. Only the CDRs of the light chain vary.
VH: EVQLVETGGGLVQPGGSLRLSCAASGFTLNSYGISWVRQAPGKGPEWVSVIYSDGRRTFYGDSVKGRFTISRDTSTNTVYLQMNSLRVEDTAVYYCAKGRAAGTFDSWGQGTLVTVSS
VL: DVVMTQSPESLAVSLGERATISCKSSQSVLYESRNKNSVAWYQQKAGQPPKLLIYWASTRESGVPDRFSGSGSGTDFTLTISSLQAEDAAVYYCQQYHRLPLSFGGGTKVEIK

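The starting antibody came from a phage panning campaign against this peptide. In library AAYL50, one, two or three CDR residues were substituted; doubles and triples were drawn at random. The scFvs were displayed on barcoded MATa yeast, the peptide on MATalpha yeast. Mating (16 h, 30 °C) was followed by selection of diploids and sequencing of their barcodes. Each replicate has its own calibration line, from reference interactions of the BCL2 family. Each pool was mated in three replicate cultures.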

The parent's light chain CDRs are KSSQSVLYESRNKNSVA, WASTRES, QQYHRLPLS; each variant's own CDRs replace them letter for letter.
Affinities are written as log10 Kd with Kd in nM; a lower number is a better binder.
The mean shown is taken over the replicates in which the pair was detected.
"nd" marks a missing value. The strain was present, yet no cells mated with the target were sequenced in that replicate, which points to weak or no binding.

| # | CDR-L1 | CDR-L2 | CDR-L3 | replicates, log10 nM | mean, log10 nM | control signals |
|---|---|---|---|---|---|---|
| 1 | DSSQSVLYESRNKNSVA | WYSTRES | QQTHRLPLS | nd nd nd | nd | 0 of 9 |
| 2 | KSSQSVLYESRNKNLRA | WASTRES | QQYHRLPLW | nd nd nd | nd | 0 of 9 |
| 3 | KSSQSVLYISRNKNSVA | WASTRES | QSGHRLPLS | 3.19 2.93 3.72 | 3.28 | 1 of 9 (4.05) |
| 4 | KWSQEVLYESRNKNSVR | WASTRES | QQYHRLPLS | nd nd nd | nd | 1 of 9 (3.88) |
| 5 | GPSQSVLYESRNKNSVA | WASPRES | QQYHRLPLS | nd nd 4.34 | 4.34 | 0 of 9 |
| 6 | KSSQSVLYESRNKNSVA | WASIREN | QQYNRLPLS | 0.38 0.68 0.51 | 0.52 | 2 of 9 (4.82) |
| 7 | KSSQSVLYESRNKNSVA | WCSTRES | QQYHDEPLS | nd nd nd | nd | 4 of 9 (4.30) |
| 8 | TSSQSVLYESRNKNQVA | WASTRES | QQYHRLPLS | 3.42 2.44 4.21 | 3.36 | 0 of 9 |
| 9 | KSAQSVLYESRNKNSVA | WASTRES | QQYHRLPLH | nd nd nd | nd | 0 of 9 |
| 10 | KSSQSVLWESRNKNSVA | WAPTRES | QQYHRLFLS | nd nd nd | nd | 0 of 9 |
| 11 | KSSQSVLYESRNKNSVA | LKSTRES | QQYHELPLS | 4.08 3.48 3.34 | 3.63 | 1 of 9 (3.25) |
| 12 | KSSQSVLDESRNKNSVA | QASTRES | QQPHRLPLS | 3.76 2.91 3.19 | 3.29 | 6 of 9 (4.17) |
| 13 | KSRQSVLYESRNKNSVA | WASTRIS | DQYHRLPLS | 3.59 4.45 5.40 | 4.48 | 2 of 9 (4.83) |
| 14 | KISFSVLYELRNKNSVA | WASTRES | QQYHRLPLS | 2.13 1.85 2.39 | 2.12 | 1 of 9 (3.52) |
| 15 | GSSQSVLYESRNKNSNA | WASTRQS | QQYHRLPLS | nd nd nd | nd | 0 of 9 |
| 16 | KSSQSVLYESNNKNSVA | CASTRES | QQYHRLPLD | 3.59 4.17 nd | 3.88 | 0 of 9 |
| 17 | KSSQYVLYEERNKNSVA | WASTRES | QQYERLPLS | 2.51 1.87 2.21 | 2.19 | 4 of 9 (4.59) |
| 18 | KSSQSVLYESRNKNSCA | GASTRES | QQYHRLPLN | 0.01 0.35 0.21 | 0.19 | 6 of 9 (4.89) |
| 19 | KSSNSVLYESRNKNSVA | WASTRES | QQHDRLPLS | 4.28 3.50 4.47 | 4.08 | 3 of 9 (4.49) |
| 20 | KSSQSALYESRNKNSVA | WMSTRES | QQYHILPLS | 2.84 2.40 2.98 | 2.74 | 2 of 9 (3.41) |
| 21 | KSSQSVLYESRGKNSVA | VASTRES | QQYHRTPLS | nd nd 4.41 | 4.41 | 1 of 9 (3.05) |
| 22 | KSSQSVGYESRQKNSVA | WASTRES | QQYHRLPLS | 0.33 0.71 0.45 | 0.50 | 1 of 9 (3.14) |
| 23 | KSSQSVLYEMRNKNSVA | CASTRES | QQYHSLPLS | 3.13 2.28 2.67 | 2.69 | 2 of 9 (3.70) |
| 24 | KTSQSVLCESRNKNSVA | WASTRES | QQYHRLPLQ | 1.26 1.50 1.20 | 1.32 | 0 of 9 |
| 25 | KFSQSVLYESRNKNSVA | FASTRES | QQYHRLPLS | 0.01 0.62 0.14 | 0.26 | 3 of 9 (5.14) |
| 26 | KSSQSVLTESRNKNSVA | WAETRES | QQYSRLPLS | 0.63 1.01 1.06 | 0.90 | 3 of 9 (3.59) |
| 27 | KSSQSVLYESENKNSVA | WASTRES | QQYHGLPLS | 1.82 1.61 1.82 | 1.75 | 1 of 9 (3.07) |
| 28 | KSSQSVLYESVNCNSVA | WASTRES | QQYSRLPLS | 0.85 1.31 1.22 | 1.13 | 1 of 9 (4.74) |
| 29 | KSSQSVLYESENKNHVA | WASTRES | QRYHRLPLS | nd nd nd | nd | 0 of 9 |
| 30 | KSSQSVLYESRNKFRVA | WASTRDS | QQYHRLPLS | nd 4.55 nd | 4.55 | 1 of 9 (3.42) |
| 31 | KSSQSVLYESRNKNSVA | VASTREP | QQYHRLPLI | 2.29 2.56 2.62 | 2.49 | 2 of 9 (4.33) |

The 4 strongest on average among those seen in every replicate, once more:

| CDR-L1 | CDR-L2 | CDR-L3 | replicates, log10 nM | mean, log10 nM | control signals |
|---|---|---|---|---|---|
| KSSQSVLYESRNKNSCA | GASTRES | QQYHRLPLN | 0.01 0.35 0.21 | 0.19 | 6 of 9 (4.89) |
| KFSQSVLYESRNKNSVA | FASTRES | QQYHRLPLS | 0.01 0.62 0.14 | 0.26 | 3 of 9 (5.14) |
| KSSQSVGYESRQKNSVA | WASTRES | QQYHRLPLS | 0.33 0.71 0.45 | 0.50 | 1 of 9 (3.14) |
| KSSQSVLYESRNKNSVA | WASIREN | QQYNRLPLS | 0.38 0.68 0.51 | 0.52 | 2 of 9 (4.82) |

For reference, the parent read 0.65 as the reference entry and 1.68 as a member of this library.
As a blank, each scFv also met three strains without target: over library AAYL50, 18% of these pairings were detected, typically at 4.19 and seldom below 2.99. The control count says in how many pairings with the empty strains this scFv gave a signal, with their mean in brackets.